Measurements from US20230193226A1, “BUTYRYLCHOLI[…] AN ENHANCED ABILITY TO HYDROLYZE ACYL GHRELIN” (priority 2014, published 2023).

Chains of the proteins cited; added tags and fusions are not shown. Residues count along the entry.
UniProt P06276, 29-602: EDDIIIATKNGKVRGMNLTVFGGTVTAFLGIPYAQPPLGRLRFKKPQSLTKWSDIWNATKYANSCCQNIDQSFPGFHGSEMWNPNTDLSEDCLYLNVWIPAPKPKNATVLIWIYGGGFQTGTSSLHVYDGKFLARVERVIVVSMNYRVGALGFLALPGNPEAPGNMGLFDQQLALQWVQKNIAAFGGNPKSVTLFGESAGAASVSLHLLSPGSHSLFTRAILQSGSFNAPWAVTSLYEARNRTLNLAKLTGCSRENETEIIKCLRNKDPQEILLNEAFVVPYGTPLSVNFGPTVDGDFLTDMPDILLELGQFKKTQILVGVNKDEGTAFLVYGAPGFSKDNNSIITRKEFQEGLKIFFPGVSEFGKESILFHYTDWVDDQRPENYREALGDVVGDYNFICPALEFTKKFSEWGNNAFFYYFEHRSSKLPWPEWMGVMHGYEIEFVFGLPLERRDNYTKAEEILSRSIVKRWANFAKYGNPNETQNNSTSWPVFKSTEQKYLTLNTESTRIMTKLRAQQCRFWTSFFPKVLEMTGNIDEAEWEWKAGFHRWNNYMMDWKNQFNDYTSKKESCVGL

Target: T1, human BChE (Homo sapiens, UniProt P06276)
T1 construct: Dr. O. Lockridge (sample obtained from them, not a commercial vendor)
Assay: Inhibition of human BChE hydrolysis of acyl-ghrelin and BTCh by inhibitors
Type: biochemical
Experimental: FIGS. 3A-3D. […] (3B) One ng of human acyl-ghrelin was treated with different amount of human BChE. After 20 hours of incubation, residual acyl ghrelin and desacyl ghrelin in each reaction were determined. (3C) One ng of human acyl ghrelin was treated with 10 µg of human BChE and % decrease in residual acyl ghrelin was measured as a function of time. […] The hydrolysis activities with butyrylthiocholine (BTCh) or acyl-ghrelin as substrates were determined by Ellman assay and acyl-ghrelin immunoassay, respectively. Data are normalized to the no inhibitor controls. All values are means ± SD, each with duplicate samples (n=3).
A sample of purified human BChE was obtained from Dr. O. Lockridge and assessed by gel electrophoresis (FIG. 3A).

## CC(C)NP(=O)(NC(C)C)OP(=O)(NC(C)C)NC(C)C [iso-OMPA]
10 µg human BChE, 10 minutes with inhibitor, then 1 ng acyl ghrelin, 20 hours, acyl-ghrelin immunoassay
  inhibition of acyl ghrelin hydrolysis by human BChE: blocked
Ellman assay, iso-OMPA 10 or 100 µM
  inhibition of butyrylthiocholine (BTCh) hydrolysis by human BChE: blocks
